Measured values published in patent publication US9133171B2 (priority 2011, dated 2015).
pIC50: −log10 of the molar value.

Target: CDK2/CycE (Homo sapiens (Human), UniProt P24941)
Test: biochemical
Details: CDK2: CDK2/CycE kinase assay IC50

**Q.** With COc1cc(F)ccc1-c1nc(Nc2cc(F)c(F)c(CS(C)(=O)=NC#N)c2)ncc1F (racemic) [Example 24, (rac)-[(2,3-Difluoro-5-{[5-fluoro-4-(4-fluoro-2-methoxyphenyl)pyrimidin-2-yl]amino}benzyl)-(methyl)oxido-λ^6-sulfanylidene]cyanamide] as the compound, how does the pIC50 read?
**A.** 7.14

**Q.** How did the pIC50 turn out when COc1cc(F)ccc1-c1nc(Nc2cc(CS(C)(=N)=O)cc(C(F)(F)F)c2)ncc1F (racemic) [Example 41, (rac)-5-Fluoro-4-(4-fluoro-2-methoxyphenyl)-N-[3-[(S-methylsulfonimidoyl)methyl]-5-(trifluoro-methyl)phenyl]pyrimidin-2-amine] was run?
**A.** 6.74

**Q.** How did the pIC50 turn out when CCS(=O)(Cc1cc(F)cc(Nc2ncc(F)c(-c3ccc(F)cc3OC)n2)c1)=NC#N (racemic) [Example 42, (rac)-[Ethyl(3-fluoro-5-{[5-fluoro-4-(4-fluoro-2-methoxyphenyl)pyrimidin-2-yl]amino}benzyl)-oxido-λ^6-sulfanylidene]cyanamide] was run?
**A.** 6.80

**Q.** How did the pIC50 turn out when COc1cc(F)ccc1-c1nc(Nc2cc(CS(C)(=O)=NC#N)cc(C(F)(F)C(F)(F)F)c2)ncc1F (racemic) [Example 46, (rac)-{[3-{[5-Fluoro-4-(4-fluoro-2-methoxyphenyl)pyrimidin-2-yl]amino}-5-(pentafluoroethyl)-benzyl](methyl)oxido-λ^6-sulfanylidene}cyanamide] was run?
**A.** 6.20

**Q.** CS(=N)(=O)Cc1cccc(Nc2ncc(F)c(-c3ccc(F)cc3OCc3ccc(F)cc3)n2)c1 (racemic) [Example 55, (rac)-5-Fluoro-4-[4-fluoro-2-[(4-fluorobenzyl)oxy]phenyl]-N-[3-{(S-methylsulfonimidoyl)methyl]-phenyl}pyrimidin-2-amine] was tested. Which pIC50 did it give?
**A.** 6.11

**Q.** COc1cc(F)ccc1-c1nc(Nc2cc(C)cc(CS(C)(=O)=NC#N)c2)ncc1F (racemic) [Example 58, (rac)-[(3-{[5-Fluoro-4-(4-fluoro-2-methoxyphenyl)pyrimidin-2-yl]amino}-5-methylbenzyl)(methyl)-oxido-λ^6-sulfanylidene]cyanamide] was tested. Which pIC50 did it give?
**A.** 6.66
